The results in this text go back to US4532255A, “Amidine compounds and anticomplement agent comprising same” (Torii & Co., Ltd., priority 1980, dated 1985).

The test addresses T1, C1r (Homo sapiens, UniProt P00736).
T1 sequence (P00736 464-705 limits assumed): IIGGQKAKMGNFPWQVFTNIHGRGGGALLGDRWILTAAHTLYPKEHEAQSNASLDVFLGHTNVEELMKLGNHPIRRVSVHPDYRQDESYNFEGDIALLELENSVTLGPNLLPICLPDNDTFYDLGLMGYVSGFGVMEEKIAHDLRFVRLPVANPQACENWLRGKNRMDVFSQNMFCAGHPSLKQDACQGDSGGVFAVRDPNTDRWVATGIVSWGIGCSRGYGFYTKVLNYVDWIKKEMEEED
T1 sequence (P00736 18-463 partner limits assumed): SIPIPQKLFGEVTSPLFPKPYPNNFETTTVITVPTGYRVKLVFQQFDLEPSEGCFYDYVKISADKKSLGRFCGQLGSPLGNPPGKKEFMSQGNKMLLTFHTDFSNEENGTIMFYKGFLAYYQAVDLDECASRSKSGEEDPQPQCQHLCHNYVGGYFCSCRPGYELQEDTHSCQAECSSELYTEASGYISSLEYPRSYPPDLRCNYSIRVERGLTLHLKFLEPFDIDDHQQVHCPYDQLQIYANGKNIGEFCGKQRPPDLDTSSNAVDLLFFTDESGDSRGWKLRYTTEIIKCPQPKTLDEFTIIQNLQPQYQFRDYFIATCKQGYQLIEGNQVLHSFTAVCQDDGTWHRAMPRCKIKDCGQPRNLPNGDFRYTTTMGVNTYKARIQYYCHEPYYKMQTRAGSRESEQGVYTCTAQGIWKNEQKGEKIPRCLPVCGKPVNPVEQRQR
The test can be described thus: Anti-C1 esterase (C1r) activity (hydrolysis of AAME). Format: biochemical. Here is the method: The anti-Cl esterase ([…]) activity was determined according to the method of Okamura et al. [K. Okamura, M. Muramatsu and S. Fujii, Biochem. Biophys.

For orientation: IC50 means the concentration that gives 50% inhibition. The low end stands for higher potency, the high end for lower potency. Regarding `N=C(N)c1ccc2cc(OC(=O)c3ccc(F)cc3)ccc2c1` [Compound 15], the IC50 came out at 200 nM.
